Test results taken from ChEMBL document CHEMBL1201862, “PubChem BioAssay data set” (2004).
Some of the results follow. Cut-off read from the data, not from the text of the source: active = GI50 up to about 1.1 µM and inactive = higher. Only a part of the results of these assays is listed, not drawn at random.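 How tested: cells in 96-well plates exposed to compound for 48 hours at five concentrations. Here, GI50 denotes the concentration required for 50% inhibition of growth.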 For some of these results: Entries with a potency or affinity are not part of this list.

tested on: SN12C; test: NCI tumour cell line growth inhibition, 48 h

SMILES	GI50
CCN(CCO)CCO.Oc1c(Cl)c(Cl)c(Cl)c(Cl)c1Cl	inactive: 20.4 µM
N1=C(c2nnn[nH]2)NNC(c2nnn[nH]2)=N1	inactive: > 100 µM
CC1=C[C@H]2O[C@@H]3[C@H](O)[C@@H](O)[C@](C)([C@@]2(O)CC1)[C@]31CO1	active: 0.336 µM

tested on: SNB-19; test: NCI tumour cell line growth inhibition, 48 h

SMILES	GI50
CCN(CCO)CCO.Oc1c(Cl)c(Cl)c(Cl)c(Cl)c1Cl	inactive: 31.4 µM
N1=C(c2nnn[nH]2)NNC(c2nnn[nH]2)=N1	inactive: > 100 µM
CC1=C[C@H]2O[C@@H]3[C@H](O)[C@@H](O)[C@](C)([C@@]2(O)CC1)[C@]31CO1	active: 0.186 µM

tested on: SNB-75; test: NCI tumour cell line growth inhibition, 48 h

SMILES	GI50
CCN(CCO)CCO.Oc1c(Cl)c(Cl)c(Cl)c(Cl)c1Cl	inactive: 25.9 µM
N1=C(c2nnn[nH]2)NNC(c2nnn[nH]2)=N1	inactive: > 100 µM
CC1=C[C@H]2O[C@@H]3[C@H](O)[C@@H](O)[C@](C)([C@@]2(O)CC1)[C@]31CO1	active: 0.207 µM

tested on: SR; test: NCI tumour cell line growth inhibition, 48 h

SMILES	GI50
CC1=C[C@H]2O[C@@H]3[C@H](O)[C@@H](O)[C@](C)(C2(COC(=O)CCl)CC1)[C@@]31CO1 (stereo partly drawn)	active: 0.0101 µM
CCN(CCO)CCO.Oc1c(Cl)c(Cl)c(Cl)c(Cl)c1Cl	inactive: 20.4 µM
CCCCCCCCCCCCCCC[C@@H]1C[N+](C)(C)CCO[P@@](C)(=O)O1	active: 0.653 µM

tested on: SW-620; test: NCI tumour cell line growth inhibition, 48 h

SMILES	GI50
CCN(CCO)CCO.Oc1c(Cl)c(Cl)c(Cl)c(Cl)c1Cl	inactive: 31.7 µM
N1=C(c2nnn[nH]2)NNC(c2nnn[nH]2)=N1	inactive: > 100 µM
O=C(NCC(F)([N+](=O)[O-])[N+](=O)[O-])N(CC(F)([N+](=O)[O-])[N+](=O)[O-])CC(F)([N+](=O)[O-])[N+](=O)[O-]	inactive: 1.55 µM
CC1=C[C@H]2O[C@@H]3[C@H](O)[C@@H](O)[C@](C)([C@@]2(O)CC1)[C@]31CO1	active: 0.25 µM

tested on: U-251; test: NCI tumour cell line growth inhibition, 48 h

SMILES	GI50
CCN(CCO)CCO.Oc1c(Cl)c(Cl)c(Cl)c(Cl)c1Cl	inactive: 18.4 µM
N1=C(c2nnn[nH]2)NNC(c2nnn[nH]2)=N1	inactive: > 100 µM
CC1=C[C@H]2O[C@@H]3[C@H](O)[C@@H](O)[C@](C)([C@@]2(O)CC1)[C@]31CO1	active: 0.181 µM

tested on: UACC-257; test: NCI tumour cell line growth inhibition, 48 h

SMILES	GI50
CCN(CCO)CCO.Oc1c(Cl)c(Cl)c(Cl)c(Cl)c1Cl	inactive: 20.7 µM
N1=C(c2nnn[nH]2)NNC(c2nnn[nH]2)=N1	inactive: > 100 µM
CC1=C[C@H]2O[C@@H]3[C@H](O)[C@@H](O)[C@](C)([C@@]2(O)CC1)[C@]31CO1	active: 0.24 µM

tested on: UACC-62; test: NCI tumour cell line growth inhibition, 48 h

SMILES	GI50
CCN(CCO)CCO.Oc1c(Cl)c(Cl)c(Cl)c(Cl)c1Cl	inactive: 18.9 µM
N1=C(c2nnn[nH]2)NNC(c2nnn[nH]2)=N1	inactive: > 100 µM
CC1=C[C@H]2O[C@@H]3[C@H](O)[C@@H](O)[C@](C)([C@@]2(O)CC1)[C@]31CO1	active: 0.222 µM

tested on: UO-31; test: NCI tumour cell line growth inhibition, 48 h

SMILES	GI50
CCN(CCO)CCO.Oc1c(Cl)c(Cl)c(Cl)c(Cl)c1Cl	inactive: 18.5 µM
N1=C(c2nnn[nH]2)NNC(c2nnn[nH]2)=N1	inactive: > 100 µM
CC1=C[C@H]2O[C@@H]3[C@H](O)[C@@H](O)[C@](C)([C@@]2(O)CC1)[C@]31CO1	active: 0.385 µM
